{"source": "patent US12036241B2", "about": "“Compositions and methods for immune cell modulation in adoptive immunotherapies” (Fate Therapeutics, Inc., priority 2017, dated 2024)", "key": {"[1]": {"tested_on": "K562 tumor cells engineered to express CD19 and luciferase", "test": "Two-stage tumor clearance model, secondary tumor re-challenge", "format": "in vivo, NSG mice", "conditions": "re-challenge 47 days post primary tumor; FIG. 13D", "description": "(§1) To further assess tumor clearance and control by CAR-T cells modulated with a selected compound, a two-stage tumor clearance model was established. […] Secondary tumor burden was measured via bi-weekly caliper measurements and IVIS imaging. IVIS control mice received neither tumor nor CAR-T cells and served as the background luminescence for the IVIS imager."}, "[2]": {"tested_on": "luciferase expressing Nalm6 tumor cells", "test": "Two-stage tumor clearance model, primary tumor", "format": "in vivo, NSG mice", "conditions": "3×10^6 CD19 CAR-T; FIG. 13B", "description": "as §1"}}, "data": [{"molecule": "Oc1cccc(-c2nc(N3CCOCC3)c3oc4ncccc4c3n2)c1", "note": "[PI103]", "values": [{"measurement": "control of secondary tumor", "setting": "[1]", "result": "perform better"}, {"measurement": "mice that contained and eliminated primary Nalm6 tumor within 1-3 weeks", "setting": "[2]", "result": "seven of eight"}]}]}
